Laboratory results published in US20250241894A1, “TREATMENT OF MENTAL DISORDERS” (GH RESEARCH IRELAND LIMITED, priority 2022, published 2025).

What was measured:
human hepatocytes [1] = assay: Metabolism identification study in human hepatocytes; conditions: 5-MeO-DMT free base 10 μM, up to 120 minutes
Protocol: For incubations with cryopreserved hepatocytes, the 2 mM stock solution was diluted with Leibovitz L-15 medium to a concentration of 20 μM or 2 μM. An aliquot (250 μL) of the 20 μM and 2 μM test substance formulations was added to each hepatocyte incubation sample (250 μL), as appropriate, so that the final test substance concentration in the incubations was 10 μM or 1 μM, respectively, and incubations contained less than 1% (v/v) solvent.
Incubations were performed at ca. 37° C. in a shaking water bath (total incubation volume 0.5 mL). For 1 μM, incubations were terminated after 0, 5, 10, 20, 30, 60 and 120 minutes, by the addition of ice-cold acetonitrile (0.5 mL).
The samples were vortex mixed and centrifuged at ca 13,000 rpm for 10 minutes at room temperature. […]
Prior to sample analysis a 100 μL aliquot of each sample was evaporated to near dryness under a steady stream of nitrogen at room temperature, and subsequently reconstituted in 50 μL of mobile phase A (0.1% formic acid in water). Each sample (0, 30 and 120-minute, 10 μM) was analysed using accurate mass LC-MS to determine relative levels of parent compound at each time-point, and determine the profile of metabolites formed. Appropriate blank and control samples were also analysed. The 10 and 60-minute, 10 μM incubation samples were not analysed and were stored at −80° C. […]

human hepatocytes [2] = assay: Metabolic stability in Hμrel human hepatocyte co-culture assay

Substance: 5-Methoxyindole acetic acid [5-MIAA]
- Relative Proportion of compounds identified (human hepatocytes [1]): 61%
- Relative LC/MS peak area (human hepatocytes [2]; 1 μM Hepatocytes, 1 h): 98%
- Relative LC/MS peak area (human hepatocytes [2]; 1 μM Hepatocytes, 2 h): 100%
- Relative LC/MS peak area (human hepatocytes [2]; 1 μM Hepatocytes, 4 h): 99%
- Relative LC/MS peak area (human hepatocytes [2]; 1 μM Hepatocytes, 8 h): 95%
- Relative LC/MS peak area (human hepatocytes [2]; 1 μM Hepatocytes, 24 h): 99%
- Relative LC/MS peak area (human hepatocytes [2]; 1 μM Hepatocytes, 48 h): 88%
- Relative LC/MS peak area (human hepatocytes [2]; 1 μM Hepatocytes, 72 h): 82%
- Relative LC/MS peak area (human hepatocytes [2]; 1 μM Stromal cells, 4 h): 103%
- Relative LC/MS peak area (human hepatocytes [2]; 1 μM Stromal cells, 8 h): 107%
- Relative LC/MS peak area (human hepatocytes [2]; 1 μM Stromal cells, 24 h): 108%
- Relative LC/MS peak area (human hepatocytes [2]; 1 μM Stromal cells, 48 h): 111%
- Relative LC/MS peak area (human hepatocytes [2]; 1 μM Stromal cells, 72 h): 135%
- Relative LC/MS peak area (human hepatocytes [2]; 10 μM Hepatocytes, 1 h): 97%
- Relative LC/MS peak area (human hepatocytes [2]; 10 μM Hepatocytes, 2 h): 100%
- Relative LC/MS peak area (human hepatocytes [2]; 10 μM Hepatocytes, 4 h): 103%
- Relative LC/MS peak area (human hepatocytes [2]; 10 μM Hepatocytes, 8 h): 96%
- Relative LC/MS peak area (human hepatocytes [2]; 10 μM Hepatocytes, 24 h): 96%
- Relative LC/MS peak area (human hepatocytes [2]; 10 μM Hepatocytes, 48 h): 86%
- Relative LC/MS peak area (human hepatocytes [2]; 10 μM Hepatocytes, 72 h): 75%
- Relative LC/MS peak area (human hepatocytes [2]; 10 μM Stromal cells, 4 h): 101%
- Relative LC/MS peak area (human hepatocytes [2]; 10 μM Stromal cells, 8 h): 106%
- Relative LC/MS peak area (human hepatocytes [2]; 10 μM Stromal cells, 24 h): 97%
- Relative LC/MS peak area (human hepatocytes [2]; 10 μM Stromal cells, 48 h): 103%
- Relative LC/MS peak area (human hepatocytes [2]; 10 μM Stromal cells, 72 h): 115%
